# Apparent affinities of Ab-91 variants for a coronavirus HR2 peptide

Target peptide (SARS-CoV-2 spike, HR2 region): PDVDLGDISGINAS

Ab-91 is the parent antibody, in scFv form: VL, then the linker GGGGSGGGGSGGGGS, then VH. The light chain is unchanged in all variants.
VL: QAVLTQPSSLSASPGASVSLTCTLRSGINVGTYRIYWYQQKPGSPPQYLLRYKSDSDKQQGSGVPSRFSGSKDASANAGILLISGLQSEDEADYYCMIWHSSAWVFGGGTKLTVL
VH: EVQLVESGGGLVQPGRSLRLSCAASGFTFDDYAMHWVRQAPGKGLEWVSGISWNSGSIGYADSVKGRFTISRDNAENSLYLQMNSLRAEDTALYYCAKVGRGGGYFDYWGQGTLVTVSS

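Variants in AAYL51 differ from the parent at up to three CDR positions; double and triple changes were sampled at random. AlphaSeq pools MATa yeast showing the antibodies with MATalpha yeast showing the peptide. The frequency of each diploid, read from paired DNA barcodes, reflects how well the two displayed proteins bind. The ratio of observed to expected reads was calibrated, replicate by replicate, on BCL2-family standards whose Kd was known from biolayer interferometry. Each pool was mated in three replicate cultures.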

The parent's heavy chain CDRs are GFTFDDYAMH, GISWNSGSIGYADSVK, VGRGGGYFDY; each variant's own CDRs replace them letter for letter. Affinities are written as log10 Kd with Kd in nM; a lower number is a better binder. Averages over replicates are reported, and they cover detected replicates only. "nd" marks a missing value. The strain was present, yet no cells mated with the target were sequenced in that replicate, which points to weak or no binding. Empty control strains, which show no peptide, gave a signal in 21% of pairings with library AAYL51; the median was 4.54 and 95% of these signals were weaker than 3.26. No background was subtracted. The control count says in how many pairings with the empty strains this scFv gave a signal, with their mean in brackets.

{"CDR-H1": "GFTFDDYAME", "CDR-H2": "GISWNSGSIDYADSVK", "CDR-H3": "NGRGGGYFDY", "log10 Kd, replicates": "3.19 nd nd", "log10 Kd (nM), mean": "3.19", "empty controls": "1/9 (3.70)"}
{"CDR-H1": "GFTFDDYAMH", "CDR-H2": "GIQINSGSIGYADSVM", "CDR-H3": "VGRGGGYFDY", "log10 Kd, replicates": "5.06 nd nd", "log10 Kd (nM), mean": "5.06", "empty controls": "2/9 (3.90)"}
{"CDR-H1": "GFPFDDYAMH", "CDR-H2": "GIQWNSGSIGYADSVK", "CDR-H3": "VGRKGGYFDY", "log10 Kd, replicates": "nd nd nd", "log10 Kd (nM), mean": "nd", "empty controls": "4/9 (4.07)"}
{"CDR-H1": "GFTCDDYAMH", "CDR-H2": "GISWNSGSIGYAKSVK", "CDR-H3": "VGKGGGYFDY", "log10 Kd, replicates": "3.64 4.62 3.98", "log10 Kd (nM), mean": "4.08", "empty controls": "2/9 (3.79)"}
{"CDR-H1": "GFTFDDYAMH", "CDR-H2": "GISMNSGSIGYNDCVK", "CDR-H3": "VGRGGGYFDY", "log10 Kd, replicates": "1.74 1.69 1.48", "log10 Kd (nM), mean": "1.64", "empty controls": "5/9 (4.93)"}
{"CDR-H1": "GFTFDKYAMH", "CDR-H2": "GISWNSGNIGYADSVK", "CDR-H3": "VGRGGGYMDY", "log10 Kd, replicates": "3.13 3.53 3.07", "log10 Kd (nM), mean": "3.24", "empty controls": "4/9 (4.59)"}
{"CDR-H1": "GFTFDDYAMH", "CDR-H2": "GINWNSGSIGYADKVK", "CDR-H3": "VGRGGYYFDY", "log10 Kd, replicates": "nd nd nd", "log10 Kd (nM), mean": "nd", "empty controls": "0/9"}
{"CDR-H1": "GFTFDDYAMH", "CDR-H2": "GISWNSGSIGYADSVD", "CDR-H3": "VGRGGGYFEY", "log10 Kd, replicates": "1.18 1.25 0.62", "log10 Kd (nM), mean": "1.02", "empty controls": "1/9 (4.04)"}
{"CDR-H1": "GFTFDDIAMH", "CDR-H2": "GISWNSGIIGYADSVF", "CDR-H3": "VGRGGGYFDY", "log10 Kd, replicates": "4.47 nd nd", "log10 Kd (nM), mean": "4.47", "empty controls": "3/9 (4.37)"}
{"CDR-H1": "WFTFDDRAMH", "CDR-H2": "GRSWNSGSIGYADSVK", "CDR-H3": "VGRGGGYFDY", "log10 Kd, replicates": "nd nd nd", "log10 Kd (nM), mean": "nd", "empty controls": "1/9 (4.35)"}
{"CDR-H1": "GFTFDDYAMH", "CDR-H2": "GISWNSGSIGYQDSVK", "CDR-H3": "VGIGGGYMDY", "log10 Kd, replicates": "0.91 1.08 -0.31", "log10 Kd (nM), mean": "0.56", "empty controls": "0/9"}
{"CDR-H1": "GFTFDDYAMH", "CDR-H2": "GISWNRGSIGEADSVK", "CDR-H3": "VGRFGGYFDY", "log10 Kd, replicates": "nd nd nd", "log10 Kd (nM), mean": "nd", "empty controls": "0/9"}
{"CDR-H1": "GFTFDDYAMH", "CDR-H2": "GISWNSGSVGYADSVK", "CDR-H3": "VGRGGGYFYN", "log10 Kd, replicates": "nd nd nd", "log10 Kd (nM), mean": "nd", "empty controls": "0/9"}
{"CDR-H1": "GFTFDDYAMH", "CDR-H2": "GISNNSGSIGYADSVK", "CDR-H3": "VPRGGGYFKY", "log10 Kd, replicates": "2.87 2.79 3.23", "log10 Kd (nM), mean": "2.96", "empty controls": "4/9 (4.56)"}
{"CDR-H1": "GFTFDDYAMH", "CDR-H2": "GISWNSYSIGYADSVK", "CDR-H3": "VGRWGQYFDY", "log10 Kd, replicates": "nd 4.19 nd", "log10 Kd (nM), mean": "4.19", "empty controls": "1/9 (4.43)"}
{"CDR-H1": "GFTFDWYAMH", "CDR-H2": "GISWNSGSIGYADSVK", "CDR-H3": "VGRGGGYFDC", "log10 Kd, replicates": "2.25 2.01 2.32", "log10 Kd (nM), mean": "2.19", "empty controls": "0/9"}
{"CDR-H1": "GFTFHDYAMH", "CDR-H2": "GISWNSGSIGYADSVC", "CDR-H3": "VGRGGGYFDY", "log10 Kd, replicates": "1.61 1.40 0.86", "log10 Kd (nM), mean": "1.29", "empty controls": "1/9 (3.69)"}
{"CDR-H1": "GGHFDDYAMH", "CDR-H2": "GISWNSGSIGYADSVK", "CDR-H3": "VARGGGYFDY", "log10 Kd, replicates": "4.34 5.79 4.59", "log10 Kd (nM), mean": "4.91", "empty controls": "7/9 (4.82)"}
{"CDR-H1": "GFTFHDYAMY", "CDR-H2": "GISHNSGSIGYADSVK", "CDR-H3": "VGRGGGYFDY", "log10 Kd, replicates": "nd nd nd", "log10 Kd (nM), mean": "nd", "empty controls": "0/9"}
{"CDR-H1": "GFTFDDYAMG", "CDR-H2": "GISWNSGSIGAADSVW", "CDR-H3": "VGRGGGYFDY", "log10 Kd, replicates": "nd nd nd", "log10 Kd (nM), mean": "nd", "empty controls": "1/9 (4.14)"}
{"CDR-H1": "GFTFDDYAMH", "CDR-H2": "GISFNSGSIGYADSVK", "CDR-H3": "FGYGGGYFDY", "log10 Kd, replicates": "5.81 5.39 nd", "log10 Kd (nM), mean": "5.60", "empty controls": "1/9 (4.77)"}
{"CDR-H1": "GFTFDDNAMH", "CDR-H2": "GISWNSGSIGYADSVK", "CDR-H3": "VGRGPGYFRY", "log10 Kd, replicates": "nd nd 5.40", "log10 Kd (nM), mean": "5.40", "empty controls": "1/9 (4.19)"}
{"CDR-H1": "GFTFDDYAMH", "CDR-H2": "GIADLSGSIGYADSVK", "CDR-H3": "VGRGGGYFDY", "log10 Kd, replicates": "nd 4.00 nd", "log10 Kd (nM), mean": "4.00", "empty controls": "1/9 (4.51)"}
{"CDR-H1": "GFTFDDYAMH", "CDR-H2": "GISWNSGSPGYADSVK", "CDR-H3": "VGRGSGYFPY", "log10 Kd, replicates": "nd nd nd", "log10 Kd (nM), mean": "nd", "empty controls": "0/9"}
{"CDR-H1": "GFTFDDYAMH", "CDR-H2": "EISWNSGPISYADSVK", "CDR-H3": "VGRGGGYFDY", "log10 Kd, replicates": "4.59 5.37 nd", "log10 Kd (nM), mean": "4.98", "empty controls": "6/9 (5.47)"}
{"CDR-H1": "GSTFDDYAMM", "CDR-H2": "GISWNSGSIGYADSVK", "CDR-H3": "VGRGGGYFDY", "log10 Kd, replicates": "nd nd nd", "log10 Kd (nM), mean": "nd", "empty controls": "0/9"}
{"CDR-H1": "GFTFGDYAMH", "CDR-H2": "GISWNSGSIGHADSVK", "CDR-H3": "LGRGGGYFDY", "log10 Kd, replicates": "nd nd nd", "log10 Kd (nM), mean": "nd", "empty controls": "0/9"}
{"CDR-H1": "GFTFDDYAMH", "CDR-H2": "GISWNSGSIGTADSYK", "CDR-H3": "VGYGGGYFDY", "log10 Kd, replicates": "nd nd nd", "log10 Kd (nM), mean": "nd", "empty controls": "2/9 (3.59)"}
{"CDR-H1": "GFTEDDYAMH", "CDR-H2": "GISWNQGSIGYADSVK", "CDR-H3": "VGRGGGYFDY", "log10 Kd, replicates": "nd nd nd", "log10 Kd (nM), mean": "nd", "empty controls": "0/9"}

The 2 strongest on average among those seen in every replicate, once more:

{"CDR-H1": "GFTFDDYAMH", "CDR-H2": "GISWNSGSIGYQDSVK", "CDR-H3": "VGIGGGYMDY", "log10 Kd, replicates": "0.91 1.08 -0.31", "log10 Kd (nM), mean": "0.56", "empty controls": "0/9"}
{"CDR-H1": "GFTFDDYAMH", "CDR-H2": "GISWNSGSIGYADSVD", "CDR-H3": "VGRGGGYFEY", "log10 Kd, replicates": "1.18 1.25 0.62", "log10 Kd (nM), mean": "1.02", "empty controls": "1/9 (4.04)"}

Reference: Engelhart et al. 2022, doi:10.1038/s41597-022-01779-4. File: FLAb, binding data.